Test [1] concerns HDQ-P1 cells homozygous for TGA (R213X) in exon 6 of the TP53 gene. Kind of test: Automated p53 immunofluorescence 96-well plate assay (PTC read-through). Type of test: cell-based, human. Particulars: HDQ-P1, 72 h, concentrations tested did not exceed 200 μM.
In test [2] the test system is NCI-H1299 tumour xenografts stably expressing TP53 R213X (TGA). Kind of test: Induction of PTC readthrough in vivo in tumour xenograft (FIG. 8). Also on record: species or system mice. Particulars: intraperitoneal; 5 consecutive days (FIG. 8A) or once at 200 and 400 mg/kg (FIG. 8B).
In test [3] the test system is HDQ-P1 cells homozygous for TGA (R213X) in exon 6 of the TP53 gene. Kind of test: Automated electrophoresis western analysis of full-length and truncated p53. Type of test: cell-based, human. Particulars: 3 mM.

Turning to `CN[C@@H]1[C@@H](O)[C@@H](O[C@@H]2[C@@H](O)[C@H](O[C@H]3O[C@H](CO)[C@@H](O)[C@H](O)[C@H]3N)[C@@H](N)C[C@H]2N)OC[C@H]1O` [Gentamicin A], the “PTC read-through activity, 96-well plate assay (FIG. 2)” value (from here on “PTC read-through activity … (FIG. 2)”) in test [1] is listed as “no activity whatsoever”.

As to `CN[C@@H]1[C@@H](O)[C@@H](O[C@@H]2[C@@H](O)[C@H](O[C@H]3O[C@H](CN)[C@@H](O)[C@H](O)[C@H]3O)[C@@H](N)C[C@H]2N)OC[C@]1(C)O` [Gentamicin B], the “PTC read-through activity … (FIG. 2)” value in test [1] is “no activity whatsoever”.

Regarding `CN[C@@H]1[C@@H](O)[C@@H](O[C@@H]2[C@@H](O)[C@H](O[C@H]3O[C@H]([C@@H](C)NC)CC[C@H]3N)[C@@H](N)C[C@H]2N)OC[C@]1(C)O` [Gentamicin C1], the “PTC read-through activity … (FIG. 2)” value in test [1] was “no activity whatsoever”.

With `CN[C@@H]1[C@@H](O)[C@@H](O[C@@H]2[C@@H](O)[C@H](O[C@H]3O[C@H]([C@@H](C)N)CC[C@H]3N)[C@@H](N)C[C@H]2N)OC[C@]1(C)O` [Gentamicin C2], in test [1], the “PTC read-through activity … (FIG. 2)” value is recorded as “no activity whatsoever”.

Turning to `CN[C@@H]1[C@@H](O)[C@@H](O[C@@H]2[C@@H](O)[C@H](O[C@H]3O[C@H]([C@H](C)N)CC[C@H]3N)[C@@H](N)C[C@H]2N)OC[C@]1(C)O` [Gentamicin C2a], in test [1], the “PTC read-through activity … (FIG. 2)” value was “no activity whatsoever”.

For the compound `CNC[C@@H]1CC[C@@H](N)[C@@H](O[C@H]2[C@H](O)[C@@H](O[C@H]3OC[C@](C)(O)[C@H](NC)[C@H]3O)[C@H](N)C[C@@H]2N)O1` [Gentamicin C2b], in test [1], the “PTC read-through activity … (FIG. 2)” value was “no activity whatsoever”.

Consider `CN[C@@H]1[C@@H](O)[C@@H](O[C@@H]2[C@@H](O)[C@H](O)[C@@H](N)C[C@H]2N)OC[C@]1(C)O` [garamine], for which the “PTC read-through activity … (FIG. 2)” value in test [1] is “no activity whatsoever”.

In the case of Gentamicin, in test [2], the “PTC readthrough (full-length p53) in tumour xenograft” value is given as “no readthrough was detected”. In test [3], the “PTC read-through activity by western analysis (FIG. 3A)” value was “active”. Moreover, the “PTC read-through activity … (FIG. 2)” value in test [1] is recorded as “did not induce PTC read-through”.

For the origin of these results see US20180258123A1, “Suppressors of Premature Termination Codons as Therapeutics and Methods for Their Use” (The University of British Columbia, priority 2015, published 2018).
